# Apparent affinities of Ab-14 variants for a coronavirus HR2 peptide

Source: Li et al. 2023 (doi:10.1038/s41467-023-39022-2), MIT Lincoln Laboratory and A-Alpha Bio; data file from the FLAb repository.

Binding partner: SARS-CoV-2 spike HR2 peptide, sequence PDVDLGDISGINAS.

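The parent was found by panning a naive human phage display library on the peptide. The variants were designed computationally from a first round of random CDR variants and then made and measured. Group labels follow the data file (Ctrl: baseline library sampled from a position-specific scoring matrix, with some repeated check sequences; Rand: our label for a block that the file lists under HC and that is probably the random mutants of the ten best first-round binders; GP: Gaussian process model; GPLM: also part of the Gaussian process libraries; HC: hill climbing; Gen: genetic algorithm; Gibbs: Gibbs sampling; a sequence that several methods proposed may carry one label only). AlphaSeq pools MATa yeast showing the antibodies with MATalpha yeast showing the peptide. The frequency of each diploid, read from paired DNA barcodes, reflects how well the two displayed proteins bind. Each replicate has its own calibration line, from reference interactions of the BCL2 family. There are six technical replicates.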

Ab-14 is the parent antibody, in scFv form: VH, then the linker GGGGSGGGGSGGGGS, then VL. The light chain is unchanged in all variants.
VH: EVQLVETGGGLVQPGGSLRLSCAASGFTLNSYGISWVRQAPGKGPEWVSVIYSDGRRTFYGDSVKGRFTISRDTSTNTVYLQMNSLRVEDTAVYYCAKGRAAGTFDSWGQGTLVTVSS
VL: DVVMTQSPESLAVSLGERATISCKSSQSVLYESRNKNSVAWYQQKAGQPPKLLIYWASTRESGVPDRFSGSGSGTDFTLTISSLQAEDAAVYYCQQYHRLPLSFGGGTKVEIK

Sequences are complete VH domains. Variants here have at most six changes. Each Kd is an estimate from the mating assay, the geometric mean of the replicates in which the pair was seen; lower is stronger. Where no diploid with the target was found in any replicate, the entry reads "nd": below detection, most likely a poor binder, though not proof of it. In the paper, a design with two or fewer of six values counts as a poor binder.

For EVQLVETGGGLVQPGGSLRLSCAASQFDCNSYGISWVRQAPGKGPEWVSVIYSDGRRTVYGDSVKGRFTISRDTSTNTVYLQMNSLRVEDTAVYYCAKGRAAGWFNSWGQGTLVTVSS [Rand], the assay gave nd (0 of 6 replicates; controls 0 of 18). Variant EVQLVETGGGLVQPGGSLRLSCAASGFTLNSYGISWVRQAPGKGPEWVSVIYSDGKRTFYSDSVKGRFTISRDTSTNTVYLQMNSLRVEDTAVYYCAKGKTAGTFDSWGQGTLVTVSS [GP_Gen] gave 1.1 nM (6 of 6 replicates; controls 1 of 18). For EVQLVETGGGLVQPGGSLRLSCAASGFTLNDYGISWVRQAPGKGPEWVSVIYSDGRRTFYMDSVKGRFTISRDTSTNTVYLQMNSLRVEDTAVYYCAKGRTAGTFISWGQGTLVTVSS [GP_HC], the assay gave nd (0 of 6 replicates; controls 0 of 18). Variant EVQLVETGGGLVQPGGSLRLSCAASGFTLNDYGISWVRQAPGKGPEWVSVIYADGRRTFYSDKVKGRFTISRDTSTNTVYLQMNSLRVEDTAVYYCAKGRAAGTFDTWGQGTLVTVSS [Ctrl] showed 170 pM (6 of 6 replicates; controls 0 of 18). With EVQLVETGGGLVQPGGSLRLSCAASGFTLNEYGISWVRQAPGKGPEWVSVIYSDGRRTFYHDSVKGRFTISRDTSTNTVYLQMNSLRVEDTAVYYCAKGRAAGCFDSWGQGTLVTVSS [GP_HC] the result was 6.2 nM (6 of 6 replicates; controls 0 of 18). Variant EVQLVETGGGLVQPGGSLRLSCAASGFVLNNYGISWVRQAPGKGPEWVSVIYSDGRRTFYVDSVKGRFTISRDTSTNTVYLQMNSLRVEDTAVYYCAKGRTAGTFDSWGQGTLVTVSS [GP_Gibbs] showed 58 nM (3 of 6 replicates; controls 1 of 18).

With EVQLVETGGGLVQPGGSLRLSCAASGFNLNSYGISWVRQAPGKGPEWVSVIYSDGRRTFYHDSVKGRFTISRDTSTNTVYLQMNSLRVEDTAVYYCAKGKAAGTFDSWGQGTLVTVSS [GP_Gen] the result was 3.3 nM (6 of 6 replicates; controls 0 of 18). For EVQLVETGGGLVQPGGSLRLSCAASGFYLNEYGISWVRQAPGKGPEWVSVIYSDGRRTFYGDSVKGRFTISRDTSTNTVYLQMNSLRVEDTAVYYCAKGRTAGTFDTWGQGTLVTVSS [GP_Gen], the assay gave 760 pM (6 of 6 replicates; controls 0 of 18). Variant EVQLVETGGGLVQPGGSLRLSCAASGFTLNSYGISWVRQAPGKGPEWVSVIYSDGYRTFYGDSVKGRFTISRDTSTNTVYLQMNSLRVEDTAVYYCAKGRAAGTKDVWGQGTLVTVSS [Ctrl] gave nd (0 of 6 replicates; controls 0 of 18). For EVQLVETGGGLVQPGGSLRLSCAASGFTLNSYGISWVRQAPGKGPEWVSVIYSDGRRTFYGDSVMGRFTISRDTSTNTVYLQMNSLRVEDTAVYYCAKTRAAGTFDSWGQGTLVTVSS [Ctrl], the assay gave 610 nM (1 of 6 replicates; controls 0 of 18). Variant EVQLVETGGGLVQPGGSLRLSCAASGFTLNSYGISWVRQAPGKGPEWVSVIYSDGRRTFYLDSVKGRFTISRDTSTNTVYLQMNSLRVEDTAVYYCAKGRADGPKDSWGQGTLVTVSS [Ctrl] showed nd (0 of 6 replicates; controls 0 of 18). For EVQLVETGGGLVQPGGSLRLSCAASGFTLKSYGISWVRQAPGKGPEWVSVIYSDGKRTFYSDSVKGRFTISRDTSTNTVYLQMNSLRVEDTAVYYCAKGRAGGTFDSWGQGTLVTVSS [GP_HC], the assay gave 200 nM (3 of 6 replicates; controls 0 of 18).

Variant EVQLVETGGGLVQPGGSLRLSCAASGFELNSYGISWVRQAPGKGPEWVSVIYSDGRRTFYGDRVKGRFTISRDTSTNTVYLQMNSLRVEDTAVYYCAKGITAGTFDSWGQGTLVTVSS [GP_Gibbs] showed 3.9 nM (6 of 6 replicates; controls 1 of 18). With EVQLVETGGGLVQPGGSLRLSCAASGFTLNSYGISWVRQAPGKGPEWVSVIYSDGRRTFYADDVKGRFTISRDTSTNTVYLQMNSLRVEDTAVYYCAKGQAAGTFDSWGQGTLVTVSS [GPLM_Gen] the result was 2.1 nM (6 of 6 replicates; controls 0 of 18). Variant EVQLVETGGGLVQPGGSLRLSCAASGFTLNSYGISWVRQAPGKGPEWVSVIYSDGRRTFYADAVKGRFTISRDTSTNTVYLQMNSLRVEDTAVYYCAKGEAAGTFDSWGQGTLVTVSS [GPLM_Gen] gave 14 nM (6 of 6 replicates; controls 1 of 18).

Repeated from above, the 2 best binders with a signal in all replicates:

For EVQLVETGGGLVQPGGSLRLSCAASGFTLNDYGISWVRQAPGKGPEWVSVIYADGRRTFYSDKVKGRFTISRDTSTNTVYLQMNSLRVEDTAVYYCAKGRAAGTFDTWGQGTLVTVSS [Ctrl], the assay gave 170 pM (6 of 6 replicates; controls 0 of 18).
For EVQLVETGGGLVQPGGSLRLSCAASGFYLNEYGISWVRQAPGKGPEWVSVIYSDGRRTFYGDSVKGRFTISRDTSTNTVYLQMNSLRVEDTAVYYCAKGRTAGTFDTWGQGTLVTVSS [GP_Gen], the assay gave 760 pM (6 of 6 replicates; controls 0 of 18).

The range of this assay differs from that of the first round, and the authors advise against merging the two. Empty control strains, which show no peptide, gave a signal in 1% of pairings with all heavy chain designs; the median was 120 nM and 95% of these signals were weaker than 7.0 nM. No background was subtracted. For each scFv, signals with the empty controls are counted beside the result.